Patent publication US20200277399A1

Target: EGFR on EGFR-positive cells (MB-MDA468, A431) (UniProt P00533)
Assay: cell-based or functional assay

CX_N325CL328C mal-val-cit-MMAE (antibody)
proliferation of A431 cells, % control (WST-1), Ab 0.0002 nM: 98.3 % control | proliferation of A431 cells, % control (WST-1), Ab 0.0009 nM: 97.5 % control | proliferation of A431 cells, % control (WST-1), Ab 0.0043 nM: 115 % control | proliferation of A431 cells, % control (WST-1), Ab 0.0213 nM: 108 % control | proliferation of A431 cells, % control (WST-1), Ab 0.1066 nM: 104 % control | proliferation of A431 cells, % control (WST-1), Ab 0.5328 nM: 96.8 % control | proliferation of A431 cells, % control (WST-1), Ab 2.6640 nM: 61.1 % control | proliferation of A431 cells, % control (WST-1), Ab 13.3200 nM: 44.9 % control | proliferation of A431 cells, % control (WST-1), Ab 66.6000 nM: 24.5 % control | proliferation of MB-MDA468 cells, % control (WST-1), Ab 0.000 nM: 103 % control | proliferation of MB-MDA468 cells, % control (WST-1), Ab 0.001 nM: 97 % control | proliferation of MB-MDA468 cells, % control (WST-1), Ab 0.004 nM: 98.4 % control | proliferation of MB-MDA468 cells, % control (WST-1), Ab 0.021 nM: 99.9 % control | proliferation of MB-MDA468 cells, % control (WST-1), Ab 0.107 nM: 96.7 % control | proliferation of MB-MDA468 cells, % control (WST-1), Ab 0.533 nM: 74 % control | proliferation of MB-MDA468 cells, % control (WST-1), Ab 2.664 nM: 32.8 % control | proliferation of MB-MDA468 cells, % control (WST-1), Ab 13.320 nM: 29.8 % control | proliferation of MB-MDA468 cells, % control (WST-1), Ab 66.600 nM: 17.5 % control
